Measurements from US7105575B2, “Methods for the treatment of neuro- disorders using aminothiol compounds” (Medimmune Oncology Inc., priority 1997, dated 2006).

Tests used:
[1] = tested on: severe neurotoxicities of right arm, leg pain; test: Example 2 case study: amifostine for chemotherapy-induced neurotoxicities (carboplatinum, vinblastine, methotrexate); assay type: in vivo, human
From the text: The patient who is a survivor of the concentration camps of World War II, was diagnosed with bladder cancer that had metastized to the lungs. They received 3 cycles carboplatinum, vinblastine and methotrexate. While in the concentration camp, the patient suffered damage to their lower legs which caused them constant pain.

[2] = tested on: neurotoxicities; test: Example 4 case study: amifostine in MDS patient with neurotoxicities from CHOP chemotherapy; assay type: in vivo, human
[3] = tested on: neurotoxicities / neuropathy
[4] = tested on: DNA of salmon sperm; conditions: compounds present concomitantly with cisplatin, in vitro; cited from earlier work
[5] = tested on: cells; conditions: compounds incubated with cells one hour after cisplatin exposure; cited from earlier work
[6] = tested on: cisplatin nephrotoxicity; conditions: amifostine given 30 minutes after cisplatin; cited from earlier work
[7] = tested on: cisplatin neuropathy; conditions: cited from earlier work
[8] = tested on: paclitaxel neuropathies and arthralgias/myalgias; conditions: pretreatment with amifostine, escalating doses of paclitaxel; cited from earlier work
[9] = tested on: cisplatin-induced renal failure; test: Example 1 case study: amifostine given after cisplatin-induced renal failure; conditions: for overall clinical status (in words) / renal function (in words): amifostine 400 mg iv for 3 days; for renal function (in words): started after renal failure had developed
[10] = tested on: V79-B310H Chinese hamster cells; conditions: cited from earlier work
[11] = cited from earlier work
[12] = 500 mg amifostine over 10 minutes
[13] = paclitaxel 135 mg/m^2 iv day 1, cisplatin 100 mg/m^2 intraperitoneally day 2, before amifostine

## NCCCNCCSP(=O)(O)O [amifostine, S-2-(3-aminopropylamino)ethyl dihydrogen phosphorothioate]
[1]; [12]
  leg pain two days after infusion: the pain in their legs was getting better
  walking ability two days after infusion: able to walk without their cane
[1]; person, 500 mg amifostine in 50 cc saline over 10 minutes
  pain reported two days after infusion: no pain for the first time in months
[1]; subsequent Ethyol infusions
  arm pain after subsequent infusions: remained without arm pain
  leg pain after subsequent infusions: The pain in their legs has improved
[1]; subsequent Ethyol infusions, before: 2 patches of 100 mcg/hr
  analgesic need (Duragesic patches): managing with only one Duragesic Patch
[2]; continues on Ethyol for MDS
  general status on continued treatment: doing well
[2]; person, Ethyol 840 mg Monday, Wednesday, Friday each week, neurotoxicities for eight years after CHOP
  neurotoxicities, patient statement after five weeks: neurotoxicities were better since receiving amifostine
[3]; after four amifostine treatments
  neuropathy one month after termination: neuropathy remained stable
[3]; person, amifostine 970 mg in 50 cc saline over 10 minutes, premedicated with Zofran and Decadron
  tolerability of first infusion: tolerated this treatment without problems
[4]
  platination of salmon sperm DNA, co-incubation: caused a decrease in the platination
[5]
  protection from cytostatic effect of cisplatin: neither WR-1065 nor WR-2721 (amifostine) could protect cells
[6]
  protection from nephrotoxicity: did not protect mice at all from nephrotoxicity
[7]; pretreatment with amifostine, prospective evaluation (Mollman 1988)
  incidence of cisplatin neuropathies: significantly lower incidence of cisplatin neuropathies
[7]; pretreatment, randomized trial cisplatin and cyclophosphamide±amifostine, advanced ovarian cancer (Kemp 1996)
  occurrence and severity of cisplatin neuropathy: significantly reduce the occurrence and severity of cisplatin neuropathy
[8]
  tolerated paclitaxel dose: allowed both higher single doses and cumulative doses of paclitaxel to be administered without the occurrence of dose limiting neuropathies and arthralgias/myalgias
[9]; FIG. 1, start about 1.0, maximum about 5.5 mg/dL after cisplatin
  serum creatinine level following treatment with amifostine (FIG. 1): about 2.8 mg/dL
[9]; about 8 days after second discharge, when amifostine 400 mg iv was given again
  creatinine at further amifostine dose after follow-up clinic visit: 2.5 mg/dL
[9]; after 3 days of amifostine 400 mg iv, peak 6.0 mg/dL before amifostine
  serum creatinine by hospital day 12 / discharge day 13: 2.8 mg/dL
[9]; after final 2-week course of amifostine 400 mg, 5 doses
  serum creatinine approximately 6 months later: 2.0 mg/dL
[9]
  overall clinical status (in words): improvement in their overall clinical status
  renal function (in words): partial recovery of their renal function
[9]; listed as Amifostine
  renal function (in words): partially reversed the toxic renal effects of cisplatin
  overall clinical status (in words): overall clinical status improved
[9]; amifostine 400 mg per day iv on post-cisplatin days 7, 8, 9
  tolerability: tolerated therapy well, with only mild nausea
[9]; patient, amifostine 400 mg per day iv on post-cisplatin days 7, 8, 9, peak 6.0 mg/dL before amifostine
  serum creatinine on day 3 of amifostine therapy: 4.6 mg/dL
[9]; readmission, 5 days, amifostine 400 mg iv on hospital day 2
  renal function during readmission (in words): renal function stabilized
[9]; readmission, amifostine 400 mg iv once on hospital day 2, ondansetron 24 mg as needed
  tolerability: tolerated the treatment well

## NCCCNCCSSCCNCCCN [WR-33278]
[4]
  platination of salmon sperm DNA, co-incubation: caused a decrease in the platination

## NCCCNCCS [WR-1065, S-2-(3-aminopropylamino) ethanethiol]
[10]; administered before, during and immediately after cisplatin treatment
  protection against cis-DDP cytotoxicity: protects against cytotoxicity
[10]
  protection during versus immediately following cisplatin exposure: little if any difference in the magnitude of protection
[10]; presence in cell growth medium relative to cisplatin exposure
  timing of maximum protection: maximum protection was obtained when WR-1065 was present in the cell growth medium for 30 minutes prior to exposure
[4]
  platination of salmon sperm DNA, co-incubation: caused a decrease in the platination
[5]
  protection from cytostatic effect of cisplatin: neither WR-1065 nor WR-2721 (amifostine) could protect cells

## N.N.[Cl][Pt][Cl] [cisplatin, cis-diamminedichloroplatinum]
[11]; nephrotoxicity produced by drugs such as cisplatin (Kemp 1996)
  potential permanent loss of normal renal function: ≥ 50%
[11]; patients treated with cisplatin
  patients with myelosuppression: 25–30%
[9]; FIG. 1, starting level about 1.0 mg/dL
  maximum serum creatinine level after administration of cisplatin (FIG. 1): about 5.5 mg/dL
[9]; [13]
  BUN by hospital day 5 after chemotherapy: 39 mg/dL
  serum creatinine by hospital day 5 after chemotherapy: 4.9 mg/dL
